Columns and labels:
Mcl-1/Bim = Mcl-1/Bim (Homo sapiens, UniProt Q07820); assay: Mcl-1/Bim ELISA (GST-Mcl-1 binding to biotinylated Bim BH3 peptide); conditions: from Mcl-1/Bim and Bcl-xL/Bim ELISA
Bcl-xL/Bim = Bcl-xL/Bim (Homo sapiens, UniProt Q07817); assay: Bcl-xL/Bim ELISA (GST-Bcl-xL binding to biotinylated Bim BH3 peptide)
[1] = tested on: cultured human cancer cells; assay: Induction of apoptosis in cultured human cancer cells; conditions: intact cell studies
[2] = tested on: human breast cancer MDA-MB-468 cells; assay: Western blotting of MDA-MB-468 cells treated with marinopyrrole derivatives (Mcl-1, Bim, caspase 3); conditions: 10 μM for 16 h

Amino acid sequences for entries named in this document (tags omitted).
UniProt Q07820, whole entry: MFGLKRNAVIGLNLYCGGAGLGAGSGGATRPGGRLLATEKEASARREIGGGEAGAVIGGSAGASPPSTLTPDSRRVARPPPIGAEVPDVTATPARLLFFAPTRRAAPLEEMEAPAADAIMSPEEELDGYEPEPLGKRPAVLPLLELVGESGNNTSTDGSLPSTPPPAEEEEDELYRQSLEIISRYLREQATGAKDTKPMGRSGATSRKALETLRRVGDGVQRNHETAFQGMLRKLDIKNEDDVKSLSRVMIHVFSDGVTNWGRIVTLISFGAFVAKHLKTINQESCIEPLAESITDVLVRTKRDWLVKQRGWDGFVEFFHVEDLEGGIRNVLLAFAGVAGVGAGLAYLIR
UniProt Q07817, whole entry: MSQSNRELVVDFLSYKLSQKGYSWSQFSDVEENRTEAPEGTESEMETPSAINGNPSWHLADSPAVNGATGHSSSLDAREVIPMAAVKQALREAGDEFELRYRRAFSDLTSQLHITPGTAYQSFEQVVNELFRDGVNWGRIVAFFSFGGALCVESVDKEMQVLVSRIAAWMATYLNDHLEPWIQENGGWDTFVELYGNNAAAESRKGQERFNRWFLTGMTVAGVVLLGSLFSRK

Compound | selectivity profile Mcl-1 vs Bcl-xL in words (Mcl-1/Bim) | activity against Bcl-xL/Bim in words (Bcl-xL/Bim) | induction of apoptosis [1] | effect on levels of Mcl-1 and Bim and cleavage of caspase 3 [2]
CCOC(=O)c1[nH]c(Cl)c(Cl)c1-n1c(C(=O)c2ccccc2O)cc(Cl)c1Cl | high selectivity for Bcl-xL/Bim over Mcl-/Bim | – | – | –
O=C(c1ccccc1O)c1[nH]c(Cl)c(Cl)c1-n1c(C(=O)c2ccc(Cl)cc2O)cc(Cl)c1Cl | dual Mcl-1 and BclxL antagonists | slight increase in potency | induced apoptosis | –
O=C(c1ccccc1O)c1[nH]c(Cl)c(Cl)c1-n1c(C(=O)c2cc(F)ccc2O)cc(Cl)c1Cl | dual Mcl-1 and BclxL antagonists | – | induced apoptosis | –
O=C(c1ccccc1O)c1[nH]c(Cl)c(Cl)c1-n1c(C(=O)c2ccccc2O)cc(Cl)c1Cl (racemic) [(±)-1, (±)-marinopyrrole A] | – | – | – | able to decrease Mcl-1 and Bim and to cleave caspas 3
O=C(c1ccccc1O)c1[nH]c(Cl)c(Cl)c1-n1c(C(=O)c2c(O)cccc2F)cc(Cl)c1Cl | – | – | induced apoptosis | –
O=C(c1ccccc1O)c1[nH]c(Cl)c(Cl)c1-n1c(C(=O)c2ccc(F)cc2O)cc(Cl)c1Cl | – | – | induced apoptosis | –
